Apparent affinities of Ab-14 variants for a coronavirus HR2 peptide

All variants were tested on one target, the spike HR2 peptide PDVDLGDISGINAS (SARS-CoV-2).

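Phage display of a naive human antibody library on the peptide gave the parent. AAYL50 was designed without a model: most single CDR substitutions and a random sample of double and triple ones. AlphaSeq pools MATa yeast showing the antibodies with MATalpha yeast showing the peptide. Binding brings cells together so that they mate, and sequencing counts the barcode pairs among the diploids. Read counts were normalised to the haploid input and turned into Kd by a linear fit to BCL2-family pairs of known affinity, for each replicate. Mating was done three times.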

Each scFv is VH, a (GGGGS)3 linker, VL, as in the parent Ab-14, and differs from it in the CDRs of the light chain only.
VH: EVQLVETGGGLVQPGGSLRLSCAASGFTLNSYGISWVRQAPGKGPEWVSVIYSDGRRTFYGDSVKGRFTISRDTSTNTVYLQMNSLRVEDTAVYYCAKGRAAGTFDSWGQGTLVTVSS
VL: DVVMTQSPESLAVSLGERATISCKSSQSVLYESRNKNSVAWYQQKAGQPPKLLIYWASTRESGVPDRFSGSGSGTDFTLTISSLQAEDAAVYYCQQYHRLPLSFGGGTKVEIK

Positions count from residue 1 of the parent VL; V29K puts K in place of V. All variants listed here change V29 of the VL, counted from its first residue. Each Kd is an estimate from the mating assay, the geometric mean of the replicates in which the pair was seen; lower is stronger. An entry "nd" has no value in the source: the pair was not observed among the diploids in any replicate. This suggests poor binding but is not conclusive. Entries are sorted by rising average, undetected variants last.

V29K+S33W+W56E: 630 pM (3 of 3 replicates).
S25V+V29L+Y31M: 760 pM (3 of 3 replicates).
V29W+L30T+R34G: 1.9 nM (3 of 3 replicates).
V29P+H98A: 2.0 nM (3 of 3 replicates).
S26E+V29L: 2.4 nM (3 of 3 replicates).
V29D: 2.9 nM (3 of 3 replicates).
V29T+A40S: 5.0 nM (3 of 3 replicates).
V29H+Q96D: 6.3 nM (3 of 3 replicates).
S28I+V29M+S62L: 8.7 nM (3 of 3 replicates).
S26R+V29K+K36D: 9.4 nM (3 of 3 replicates).
V29H+K36W+S62Y: 10 nM (3 of 3 replicates).
V29Y+Y31E+T59C: 12 nM (3 of 3 replicates).
V29K+K36F: 14 nM (3 of 3 replicates).
V29H+S62Q: 17 nM (3 of 3 replicates).
Q27L+V29Y+E61T: 20 nM (3 of 3 replicates).
V29W+R34Q+L100I: 22 nM (3 of 3 replicates).
V29N+Y31C+E61L: 23 nM (3 of 3 replicates).
S25V+V29E+L100P: 24 nM (3 of 3 replicates).
V29W+Q95L+L100Q: 31 nM (3 of 3 replicates).
Q27D+V29F+N35V: 40 nM (3 of 3 replicates).
V29E+N35P+Y97I: 52 nM (3 of 3 replicates).
V29W+N35M+H98G: 68 nM (3 of 3 replicates).
V29H+E32V+N35E: 82 nM (3 of 3 replicates).
S26K+V29D+R99D: 110 nM (3 of 3 replicates).
V29P+S58R+R99D: 220 nM (3 of 3 replicates).
Q27T+V29A+E32K: 230 nM (3 of 3 replicates).
V29R+H98K: 250 nM (3 of 3 replicates).
V29R+L30W+E61H: 500 nM (2 of 3 replicates).
V29R+N35P+R60D: 840 nM (1 of 3 replicates).
V29I+S33V+L100G: 1.4 µM (2 of 3 replicates).
V29W+N35Y+P101R: 2.3 µM (1 of 3 replicates).
S26C+V29W+S33K: 11 µM (3 of 3 replicates).
Q27S+V29C+R60W: 18 µM (2 of 3 replicates).
V29A+A57Y+H98E: 58 µM (2 of 3 replicates).
V29T+V39H+A57L: 67 µM (1 of 3 replicates).
V29I+A40M+L100Y: 93 µM (2 of 3 replicates).
V29P+E32C+L100G: 94 µM (1 of 3 replicates).
S28Q+V29E+R99W: nd (0 of 3 replicates).
V29Q+V39R+Y97D: nd (0 of 3 replicates).
V29H: nd (0 of 3 replicates).
Q27N+V29H+V39A: nd (0 of 3 replicates).
V29S+S38L+A40C: nd (0 of 3 replicates).
V29C+N35L+T59V: nd (0 of 3 replicates).
V29G+R34Q+L100K: nd (0 of 3 replicates).
Q27L+V29E+A40W: nd (0 of 3 replicates).
V29R+N37P+L102W: nd (0 of 3 replicates).

Repeated from above, the 3 best binders with a signal in all replicates:

changes,Kd (apparent),replicates with signal
V29K+S33W+W56E,630 pM,3 of 3
S25V+V29L+Y31M,760 pM,3 of 3
V29W+L30T+R34G,1.9 nM,3 of 3

In this assay the parent's reference entry averaged 4.4 nM; its copy inside this library read 48 nM. Nonspecific signal, from three strains lacking the peptide, appeared in 18% of pairings of library AAYL50, centred on 15 µM (5% of these signals below 970 nM); values are not corrected for it.

Source: Engelhart et al. 2022 (doi:10.1038/s41597-022-01779-4), MIT Lincoln Laboratory and A-Alpha Bio; data file from the FLAb repository.